These compounds were tested on formalin-induced ocular pain (blinking) (assay: formalin-induced model of ocular pain in the rat (inhibition of blinking after topical ocular dosing)). Conditions: 0.1% w/v, 20 μL topical ocular, 1-30 minutes before 5 μg formalin.
Assay type: in vivo
With `CN(C(=O)Cc1ccccc1)[C@H]1CC[C@@]2(CCCO2)C[C@@H]1N1CCCC1` the “% Inhibition (of blink count in first minute vs vehicle)” value (“% Inhibition” below) was 63%.
With `CN(C(=O)Cc1ccc(Cl)c(Cl)c1)[C@@H]1CCCC[C@H]1N1CCCC1` (relative stereo) the “% Inhibition” value was 64%.
`CN(C(=O)Cc1ccc(Cl)c(Cl)c1)[C@H]1CC[C@@]2(CCCO2)C[C@@H]1N1CCCC1` was tested, and the “% Inhibition” value was 68%.
